Tests used:
[1] = Vapor pressure Vp of the substance at 25° C.
[2] = Octanol/water partition coefficient Log P at 25° C.

Q: Which “Vapor Pressure (Pa) at 25° C.” value [1] does the source give for CCCCOP(=O)(OCCCC)OCCCC here?
A: 0.151 Pa

Q: What about the Partition Coefficient Log P at 25° C. [2] of the same molecule?
A: 4.54

Source: patent US12593865B2, “Member for flavor inhalation article, flavor inhalation article, phenol scavenger for flavor inhalation article, and method for producing flavor inhalation article” (Japan Tobacco Inc., priority 2019, dated 2026)
